Experiments:
[1] = solubility and stability compared to human amylin; type: physicochemical
[2] = plasma AC-0137 levels after IV bolus or infusion (clinical study); type: in vivo, human; details: continuous IV infusion
Description: Subjects in each dose group underwent a two period crossover to examine intravenous (IV) bolus versus IV infusion of drug. Each period consisted of a three-day confinement to the study unit. On each occasion, the initial day of confinement was allowed for acclimatization to the study unit. The second and third days constituted an imbedded crossover of placebo versus active medication. […] An imbedded cross-over design for the administration of drug and placebo on Days 2 and 3 of this admission was employed in a manner similar to that used during the first admission. The six subjects assigned to the placebo group received placebo on each of the study days.
On study days, intravenous catheters were inserted at least 30 minutes prior to the start of the study. 15 minutes before dosing, the subjects took their usual insulin dose via subcutaneous injection. […] The infusion rate was designed to administer the assigned amount of drug over the two hour period. Thirty minutes later, the subjects ingested their normal breakfasts.

[3] = tripro-amylin plasma peaks in 14-day study; type: in vivo, human
Experimental: 72 subjects with insulin-dependent diabetes mellitus participated in a 14-day clinical trial. Each subject was randomly assigned to one of four treatment groups, receiving placebo, 30, 100 or 300 μg tripro-amylin by subcutaneous injection three times a day for 14 days. The subjects also remained on their usual insulin regimen throughout the study. On days 1 (baseline), 7 and 14, standardized meal tolerance tests were performed.

Compound | solubility and stability characteristics [1] | time to levels approximating steady-state [2] [min] | Tripro-amylin plasma peaks ([3]; 30 micrograms 3 times daily s.c.) [picomoles/liter] | Tripro-amylin plasma peaks ([3]; 100 micrograms 3 times daily s.c.) [picomoles/liter] | Tripro-amylin plasma peaks ([3]; 300 micrograms 3 times daily s.c.) [picomoles/liter]
CC[C@H](C)[C@H](NC(=O)[C@@H]1CCCN1C(=O)CNC(=O)[C@H](Cc1ccccc1)NC(=O)[C@H](CC(N)=O)NC(=O)[C@H](CC(N)=O)NC(=O)[C@H](CO)NC(=O)[C@H](CO)NC(=O)[C@H](CCCNC(=N)N)NC(=O)[C@@H](NC(=O)[C@H](CC(C)C)NC(=O)[C@H](Cc1ccccc1)NC(=O)[C@H](CC(N)=O)NC(=O)[C@H](C)NC(=O)[C@H](CC(C)C)NC(=O)[C@H](CCCNC(=N)N)NC(=O)[C@H](CCC(N)=O)NC(=O)[C@@H](NC(=O)[C@H](C)NC(=O)[C@@H]1CSSC[C@H](NC(=O)[C@@H](N)CCCCN)C(=O)N[C@@H](CC(N)=O)C(=O)N[C@@H]([C@@H](C)O)C(=O)N[C@@H](C)C(=O)N[C@@H]([C@@H](C)O)C(=O)N1)[C@@H](C)O)C(C)C)C(=O)N[C@@H](CC(C)C)C(=O)N1CCC[C@H]1C(=O)N[C@@H](CO)C(=O)N[C@H](C(=O)N[C@@H](CC(N)=O)C(=O)N[C@H](C(=O)NCC(=O)N[C@@H](CO)C(=O)N[C@@H](CC(N)=O)C(=O)N[C@H](C(=O)N[C@@H](Cc1ccc(O)cc1)C(N)=O)[C@@H](C)O)C(C)C)[C@@H](C)O [^18 Arg^25,28 Pro-h-amylin] | more desirable solubility and stability characteristics |  |  |  | 
CC(C)C[C@H](NC(=O)[C@H](CCCNC(=N)N)NC(=O)[C@H](CCC(N)=O)NC(=O)[C@@H](NC(=O)[C@H](C)NC(=O)[C@@H]1CSSC[C@H](NC(=O)[C@@H](N)CCCCN)C(=O)N[C@@H](CC(N)=O)C(=O)N[C@@H]([C@@H](C)O)C(=O)N[C@@H](C)C(=O)N[C@@H]([C@@H](C)O)C(=O)N1)[C@@H](C)O)C(=O)N[C@@H](C)C(=O)N[C@@H](CC(N)=O)C(=O)N[C@@H](Cc1ccccc1)C(=O)N[C@@H](CC(C)C)C(=O)N[C@H](C(=O)N[C@@H](Cc1c[nH]cn1)C(=O)N[C@@H](CO)C(=O)N[C@@H](CO)C(=O)N[C@@H](CC(N)=O)C(=O)N[C@@H](CC(N)=O)C(=O)N[C@@H](Cc1ccccc1)C(=O)NCC(=O)N1CCC[C@H]1C(=O)N[C@H](C(=O)N[C@@H](CC(C)C)C(=O)N1CCC[C@H]1C(=O)N1CCC[C@H]1C(=O)N[C@H](C(=O)N[C@@H](CC(N)=O)C(=O)N[C@H](C(=O)NCC(=O)N[C@@H](CO)C(=O)N[C@@H](CC(N)=O)C(=O)N[C@H](C(=O)N[C@@H](Cc1ccc(O)cc1)C(N)=O)[C@@H](C)O)C(C)C)[C@@H](C)O)C(C)C)C(C)C [^25 Pro^26 Val^28,29 Pro-h-amylin] | more desirable solubility and stability characteristics |  |  |  | 
CC[C@H](C)[C@H](NC(=O)[C@@H]1CCCN1C(=O)CNC(=O)[C@H](Cc1ccccc1)NC(=O)[C@H](CC(N)=O)NC(=O)[C@H](CC(N)=O)NC(=O)[C@H](CO)NC(=O)[C@H](CO)NC(=O)[C@H](Cc1c[nH]cn1)NC(=O)[C@@H](NC(=O)[C@H](CC(C)C)NC(=O)[C@H](Cc1ccccc1)NC(=O)[C@H](CC(N)=O)NC(=O)[C@H](C)NC(=O)[C@H](CC(C)C)NC(=O)[C@H](CCCNC(=N)N)NC(=O)[C@H](CCC(N)=O)NC(=O)[C@@H](NC(=O)[C@H](C)NC(=O)[C@@H]1CSSC[C@H](NC(=O)[C@@H](N)CCCCN)C(=O)N[C@@H](CC(N)=O)C(=O)N[C@@H]([C@@H](C)O)C(=O)N[C@@H](C)C(=O)N[C@@H]([C@@H](C)O)C(=O)N1)[C@@H](C)O)C(C)C)C(=O)N[C@@H](CC(C)C)C(=O)N1CCC[C@H]1C(=O)N1CCC[C@H]1C(=O)N[C@H](C(=O)N[C@@H](CC(N)=O)C(=O)N[C@H](C(=O)NCC(=O)N[C@@H](CO)C(=O)N[C@@H](CC(N)=O)C(=O)N[C@H](C(=O)N[C@@H](Cc1ccc(O)cc1)C(N)=O)[C@@H](C)O)C(C)C)[C@@H](C)O [AC-0137, ^25,28,29 Pro-h-amylin] |  | ≤ 30 | 22 ± 4 | 44 ± 14 | 173 ± 40

— patent US5795861A, “Methods for regulating gastrointestinal motility” (Amylin Pharmaceuticals Inc., priority 1995, dated 1998)
